Data taken from patent US11844795B2, “Combination therapy for cancer treatment” (Ipsen Biopharm Ltd., priority 2015, dated 2023).

Sequences of proteins named here, by UniProt entry; tags and fusion partners are left off.
UniProt Q9UGN5, whole entry, species assumed: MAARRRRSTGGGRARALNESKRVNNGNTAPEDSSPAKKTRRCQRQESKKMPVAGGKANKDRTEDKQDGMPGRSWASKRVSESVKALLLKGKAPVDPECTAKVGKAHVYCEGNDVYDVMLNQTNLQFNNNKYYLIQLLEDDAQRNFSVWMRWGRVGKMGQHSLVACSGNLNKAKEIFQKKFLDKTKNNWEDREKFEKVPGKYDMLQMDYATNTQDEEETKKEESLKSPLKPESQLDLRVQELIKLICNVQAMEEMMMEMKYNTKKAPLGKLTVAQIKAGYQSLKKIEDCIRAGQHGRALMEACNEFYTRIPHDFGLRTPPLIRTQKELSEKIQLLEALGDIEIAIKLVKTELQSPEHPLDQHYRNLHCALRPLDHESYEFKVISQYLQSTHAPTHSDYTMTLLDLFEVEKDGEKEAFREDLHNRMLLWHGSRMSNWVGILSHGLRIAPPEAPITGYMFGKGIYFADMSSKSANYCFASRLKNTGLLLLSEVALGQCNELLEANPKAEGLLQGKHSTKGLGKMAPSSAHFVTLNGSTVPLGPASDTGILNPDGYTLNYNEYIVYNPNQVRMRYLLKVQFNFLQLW

Experiments:
BT549 = test: Cell survival (CellTiter-Glo) after SN-38 and/or PARP inhibitor; format: cell-based; conditions: Exp. 2, single agent
BT20 = test: as above; format: cell-based; conditions: Exp. 2, single agent
SUM149PT = test: as above; format: cell-based; conditions: Exp. 2, single agent
SUM159PT = test: as above; format: cell-based; conditions: Exp. 2, single agent
HCC70 = test: as above; format: cell-based; conditions: Exp. 2, single agent
PARP 2 = PARP 2 (Homo sapiens, UniProt Q9UGN5); conditions: cited from earlier work

## O=C(c1cc(Cc2n[nH]c(=O)c3ccccc23)ccc1F)N1CCN(C(=O)C2CC2)CC1 [Olaparib]
BT549
  Maximum Kill Percent: 100%
BT20
  Maximum Kill Percent: 98%
SUM149PT
  Maximum Kill Percent: 100%
SUM159PT
  Maximum Kill Percent: 94%
HCC70
  Maximum Kill Percent: 50%

## O=C(COc1cccc2c(=O)[nH]ccc12)c1ccccc1 [UPF-1069]
PARP 2
  IC50: 300 nM
